Laboratory results taken from BindingDB's records for doi:10.1002/(SICI)1098-2396(199702)25:2 (University of Toronto, 1997).

Chains of the proteins cited; added tags and fusions are not shown.
UniProt P61169, whole entry: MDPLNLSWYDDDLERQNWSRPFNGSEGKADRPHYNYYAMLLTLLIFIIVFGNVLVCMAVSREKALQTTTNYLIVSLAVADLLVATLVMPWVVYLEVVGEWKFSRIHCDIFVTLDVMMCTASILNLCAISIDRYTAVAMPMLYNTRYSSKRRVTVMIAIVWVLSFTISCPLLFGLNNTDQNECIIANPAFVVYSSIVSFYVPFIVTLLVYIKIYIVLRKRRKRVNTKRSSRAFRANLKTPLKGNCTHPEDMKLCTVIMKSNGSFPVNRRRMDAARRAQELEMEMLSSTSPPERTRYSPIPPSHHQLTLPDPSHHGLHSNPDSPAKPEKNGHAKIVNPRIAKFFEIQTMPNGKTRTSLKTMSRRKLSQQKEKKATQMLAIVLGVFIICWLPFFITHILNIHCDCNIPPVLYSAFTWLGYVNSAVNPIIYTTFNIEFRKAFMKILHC

Target: D(2) dopamine receptor (Rattus norvegicus, UniProt P61169)

SMILES: CNCC(O)c1ccc(O)c(O)c1 (configuration not stated) [EPINEPHRINE]
- Ki: 427 nM

SMILES: OCCN1CCN(CC/C=C2/c3ccccc3Sc3ccc(C(F)(F)F)cc32)CC1 [(cis) 2-{4-[3-(2-Trifluoromethyl-thioxanthen-9-ylidene)-propyl]-piperazin-1-yl}-ethanol(Flupentixol)]
- Ki: 300 nM
